Test results from patent publication US20020111340A1, “Aminoalkoxybiphenylcarboxamides as histamine-3 receptor ligands and their therapeutic applications” (priority 2000, published 2002).

Amino acid sequences for entries named in this document (tags omitted). A change or cut given only in a name is not applied to a line headed by its entry.
UniProt Q9QYN8: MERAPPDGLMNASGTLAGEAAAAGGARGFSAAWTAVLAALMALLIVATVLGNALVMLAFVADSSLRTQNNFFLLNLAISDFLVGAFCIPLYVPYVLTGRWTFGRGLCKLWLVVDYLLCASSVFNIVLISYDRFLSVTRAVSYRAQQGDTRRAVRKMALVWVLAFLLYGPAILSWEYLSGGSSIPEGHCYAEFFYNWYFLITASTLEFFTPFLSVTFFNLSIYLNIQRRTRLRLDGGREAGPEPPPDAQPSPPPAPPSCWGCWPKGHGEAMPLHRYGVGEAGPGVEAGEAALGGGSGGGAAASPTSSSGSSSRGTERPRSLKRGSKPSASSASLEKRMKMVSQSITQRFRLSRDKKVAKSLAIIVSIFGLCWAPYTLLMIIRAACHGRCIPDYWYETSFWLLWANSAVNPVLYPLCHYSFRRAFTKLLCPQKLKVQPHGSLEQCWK

Target: T1, histamine-3 receptor (Rattus norvegicus, UniProt Q9QYN8)
T1 construct: Rat cortical membranes (12 mg wet weight/tube) were incubated with; from tissue; host or cells: male Sprague-Dawley rat brain cortex membranes
Experiment: Histamine-3 receptor binding, displacement of (3H)-N-α-methylhistamine from rat cortical membranes
Details: male Sprague-Dawley rat brain cortical membranes; (3H)-N-α-methylhistamine ~0.6 nM; 30 minutes at 25° C.; Cheng-Prusoff

Ki: 4.2 nM
Compound: C[C@@H]1CC[C@@H](C)N1CCCOc1ccc(-c2ccc(C(=O)N3[C@H](C)CC[C@H]3C)cc2)cc1 [Example 6, (2R,5R)-1-[(4′-{3-[(2R,5R)-2,5-dimethylpyrrolidinyl]propoxy}[1,1′-biphenyl]-4-yl)carbonyl]-2,5-dimethylpyrrolidine]
